# Experiment: Water solubility of acrylic monomers
# Assay type: physicochemical
# Source text: Specific examples of such acrylic monomers may include one or more selected from the group consisting of dipropyleneglycol diacrylate, diethyleneglycol diacrylate, and tetraethyleneglycol dimethacrylate, as shown in the following Table 1.
substance,measurement,setting,value
Diethyleneglycole diacrylate,water solubility,"Table 1, room temperature of 25° C.",10-50 g/L
same,water solubility,stated in the example text for the monomer used,about 25 g/L
